ChEMBL document CHEMBL5579862, “Development of Novel Bacterial Topoisomerase Inhibitors Assisted by Computational Screening” (ACS Med Chem Lett, 2024)

System: Staphylococcus aureus
Experiment: Selectivity ratio of IC50 for Staphylococcus aureus topoisomerase-IV to IC50 for Staphylococcus aureus DNA gyrase

Compound COc1ccc2ncc(F)c(CCN3CCC(NCc4ccc(C)cc4)CC3)c2n1 has a Ratio IC50 of 177.
